The list shows a part of the results, in another mix than the full data. The source made the active and inactive calls.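 How the source made its calls: active means ratio plate-corrected score three or more library SD toward inhibition, starting fluorescence score within five deviations; inactive means the rest.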
What follows are molecules tested against Anoctamin-1 (Mus musculus) (UniProt Q8BHY3) (assay: TMEM16A chloride channel inhibitors, primary screen, cell-based, HTS (AID 588511)). Conditions: HEK293 TMEM16A/YFP iodide influx fluorescence, ionomycin; at 10 µM.

The chains behind the UniProt entries cited, without tags or fusion partners.
UniProt Q8BHY3, whole entry: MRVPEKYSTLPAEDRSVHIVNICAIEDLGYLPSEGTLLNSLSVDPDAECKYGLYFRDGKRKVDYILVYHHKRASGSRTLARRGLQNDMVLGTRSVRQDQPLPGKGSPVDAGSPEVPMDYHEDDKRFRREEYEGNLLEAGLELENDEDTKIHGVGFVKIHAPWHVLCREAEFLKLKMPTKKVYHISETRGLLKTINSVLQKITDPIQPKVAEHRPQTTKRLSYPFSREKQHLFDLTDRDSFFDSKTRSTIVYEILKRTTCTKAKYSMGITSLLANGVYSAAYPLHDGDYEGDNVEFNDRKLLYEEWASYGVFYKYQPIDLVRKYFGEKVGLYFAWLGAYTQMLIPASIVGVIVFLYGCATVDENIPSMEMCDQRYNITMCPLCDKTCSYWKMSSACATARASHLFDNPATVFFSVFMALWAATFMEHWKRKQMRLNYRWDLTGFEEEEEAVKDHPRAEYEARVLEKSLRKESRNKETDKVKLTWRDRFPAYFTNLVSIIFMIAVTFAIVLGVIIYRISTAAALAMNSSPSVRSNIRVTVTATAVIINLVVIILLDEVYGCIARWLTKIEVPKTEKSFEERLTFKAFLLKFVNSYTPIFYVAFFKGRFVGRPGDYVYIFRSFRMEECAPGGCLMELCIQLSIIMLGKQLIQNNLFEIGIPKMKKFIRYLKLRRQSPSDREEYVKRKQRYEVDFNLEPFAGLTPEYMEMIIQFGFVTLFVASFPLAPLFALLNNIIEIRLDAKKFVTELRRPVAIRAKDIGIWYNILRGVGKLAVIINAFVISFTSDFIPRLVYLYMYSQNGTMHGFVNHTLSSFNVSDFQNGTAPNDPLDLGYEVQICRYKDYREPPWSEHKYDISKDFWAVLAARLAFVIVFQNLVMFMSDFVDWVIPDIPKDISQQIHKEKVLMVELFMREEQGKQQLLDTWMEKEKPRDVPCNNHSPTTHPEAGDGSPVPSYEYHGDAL

| SMILES | outcome |
| --- | --- |
| CP(=O)(Nc1ccc(Cl)cc1)Oc1ccc(F)cc1 (stereo not drawn) | inactive |
| CN(C)C(=O)c1c([N+](=O)[O-])cc([N+](=O)[O-])cc1[N+](=O)[O-] | inactive |
| CC(C)=N/N=C(\N)N[N+](=O)[O-] | inactive |
| CN(C)C(=O)OCCc1n(C)cc[n+]1C | inactive |
| CC1CCN(C(=O)Oc2c(Cl)cc(Cl)c3cccnc23)CC1 | inactive |
| CCN(CC)CC(O)COC(=O)C(O)(c1ccccc1)C1CCCCC1 (stereo not drawn) | inactive |
| COc1ccc(OP(C)(=O)Nc2ccc(Br)cc2)cc1 (stereo not drawn) | inactive |
| COc1ccc(C2=NCC(CBr)S2)cc1 (stereo not drawn) | inactive |
| COc1ccccc1OP(C)(=O)Nc1c(C)n(C)n(-c2ccccc2)c1=O (stereo not drawn) | inactive |
| O=[N+]([O-])c1cccc2n[nH]nc12 | inactive |
| CC(=O)N1C2C3N(C(C)=O)C1C1N(C(C)=O)C(C(N1C(C)=O)N3C(C)=O)N2C(C)=O | inactive |
| O=C(OCCCN1CCCC1)C(O)(c1ccccc1)C1CCCCC1 (stereo not drawn) | inactive |
| CP(=O)(Oc1ccccc1)N1CCOC1=O (stereo not drawn) | inactive |
| Cc1ccc(NP(=O)(Oc2ccccc2)Oc2ccccc2)nc1 | inactive |
| O=[N+]([O-])c1cc([N+](=O)[O-])c(CCNc2ccccc2)c([N+](=O)[O-])c1 | inactive |
| CCc1ccc(OP(C)(=O)Nc2cccnc2)cc1 (stereo not drawn) | inactive |
| CC(C)(C)C(=O)NC(Sc1ccncn1)C(Cl)(Cl)Cl (stereo not drawn) | inactive |
| O=[N+]([O-])c1ncn(CCn2ncnc2[N+](=O)[O-])n1 | inactive |
| O=[N+]([O-])c1cccc(NC2=NCC(CBr)S2)c1 (stereo not drawn) | inactive |
| O=C(O)CNc1ccc([As](=O)(O)O)cc1 | inactive |

| SMILES | outcome |
| --- | --- |
| Nc1ccc2c(ccc3cccnc32)n1.O=[N+]([O-])c1cc([N+](=O)[O-])c(O)c([N+](=O)[O-])c1 | inactive |
| CCOC(=O)c1ccc(NP(C)(=O)Oc2ccc(Cl)cc2)cc1 (stereo not drawn) | inactive |
| O=C(Nc1cc([As](=O)(O)O)ccc1O)c1ccccc1 | inactive |
| CP(=O)(OC12CC3CC(CC(C3)C1)C2)OC12CC3CC(CC(C3)C1)C2 | inactive |
| Cc1nc2ccc3ccccc3c2o1.O=[N+]([O-])c1cc([N+](=O)[O-])c(O)c([N+](=O)[O-])c1 | inactive |
| O=[N+]([O-])c1cc([N+](=O)[O-])c(CCN2CCOCC2)c([N+](=O)[O-])c1 | inactive |
| CCN(N=Nc1nonc1N)c1nonc1N | inactive |
| Nc1cccc2ccc([As](=O)(O)O)cc12 | inactive |
| CP(=O)(OCCOc1ccccc1)OCCOc1ccccc1 | inactive |
| CP(=O)(Nc1ccc(Cl)cc1Cl)Oc1ccccc1 (stereo not drawn) | inactive |
| O=C(O)c1ccccc1[As](=O)(O)O | inactive |
| CC(=O)Nc1ccc([As](=O)(O)O)cc1 | inactive |
| Cc1cc(C)cc(OP(C)(=O)Nc2cccc(C(F)(F)F)c2)c1 (stereo not drawn) | inactive |
| O=P(Nc1nc2ccc(Cl)cc2s1)(c1ccccc1)c1ccccc1 | inactive |
| CCOP(=O)(Nc1ccccc1)OCC | inactive |
| Cc1cc(SC(NC(=O)c2ccc(F)cc2)C(Cl)(Cl)Cl)ncn1 (stereo not drawn) | inactive |
| Cc1ccc(NP(=O)(Oc2ccccc2F)Oc2ccccc2F)nc1 | inactive |
| CN(C(=O)Cc1ccc(Cl)c(Cl)c1)[C@H]1CCCC[C@@H]1N1CCCC1 | inactive |
| COc1ccccc1OP(C)(=O)Nc1ccc(C)c(C)c1 (stereo not drawn) | inactive |
| COc1ccc(OP(C)(=O)Nc2ccccc2Br)cc1 (stereo not drawn) | inactive |

| SMILES | outcome |
| --- | --- |
| CC(C)CC(=O)NC(Sc1ccc(Cl)cc1)C(Cl)(Cl)Cl (stereo not drawn) | inactive |
| O=[N+]([O-])c1cc([N+](=O)[O-])c(Nc2ccccn2)c([N+](=O)[O-])c1 | inactive |
| Cc1c(NP(C)(=O)Oc2ccc(C(C)C)cc2)c(=O)n(-c2ccccc2)n1C (stereo not drawn) | inactive |
| Nc1cc(N)c2nonc2c1[N+](=O)[O-] | inactive |
| Oc1ccccc1CNc1ccccn1 | inactive |
| Cc1c2non([O-])c-2c(C)[n+](=O)[n+]1[O-] | inactive |
| O=C(NC(Sc1ccncn1)C(Cl)(Cl)Cl)c1ccccc1 (stereo not drawn) | inactive |
| CP(=O)(Nc1ccccn1)Oc1ccccc1 (stereo not drawn) | inactive |
| COc1ccccc1OP(C)(=O)Nc1ccc(C)cc1C (stereo not drawn) | inactive |
| CCc1ccc(OP(C)(=O)O)cc1 | inactive |
| NC(=O)c1cc([N+](=O)[O-])cc([N+](=O)[O-])c1N | inactive |
| COc1ccccc1OP(C)(=O)Nc1ccc(Br)cc1 (stereo not drawn) | inactive |
| CN(C(=O)Cc1ccc(Cl)c(Cl)c1)[C@H]1CCCC[C@H]1N1CCCC1 | inactive |
| Cc1ccc(N/C(=N/P(=O)(N2CCOCC2)N2CCOCC2)N2CCOCC2)cc1 | inactive |
| COc1ccc(OP(C)(=O)Nc2ccccn2)cc1 (stereo not drawn) | inactive |
| COc1ccccc1OP(=O)(Nc1ccc(C)cn1)Oc1ccccc1OC | inactive |
| Cc1ccc(OP(=O)(Nc2nccs2)Oc2ccc(C)cc2)cc1 | inactive |
| Clc1ccc(Cl)c(NC2=NCC(CBr)S2)c1 (stereo not drawn) | inactive |

Source: PubChem BioAssay AID588511 (Johns Hopkins Ion Channel Center, 2011)
